Experiment [1] concerns the target Carbonic anhydrase 9 (Homo sapiens, UniProt Q16790).
Experiment [2] has as its target Carbonic anhydrase 1 (Homo sapiens, UniProt P00915).

Molecules are shown by their SMILES.

Usually Ki stands for a dissociation constant, usually derived from enzyme kinetics or from competition with a known ligand. A higher Ki goes with weaker binding.

For `CC(=O)OC[C@H]1O[C@@H](NC(=S)NCc2ccc(S(N)(=O)=O)cc2)[C@H](OC(C)=O)[C@@H](OC(C)=O)[C@@H]1O[C@H]1O[C@H](COC(C)=O)[C@@H](OC(C)=O)[C@H](OC(C)=O)[C@H]1OC(C)=O`, the Ki in experiment [1] was determined as 7.5 nM.
In experiment [2], `NS(=O)(=O)c1ccc(C(=O)NNC(=S)N[C@@H]2O[C@H](CO)[C@@H](O[C@H]3O[C@H](CO)[C@@H](O)[C@H](O)[C@H]3O)[C@H](O)[C@H]2O)cc1` showed a Ki of 4780 nM.
The compound `NS(=O)(=O)c1ccc(C(=O)NNC(=S)N[C@@H]2O[C@H](CO)[C@@H](O[C@@H]3O[C@H](CO)[C@H](O)[C@H](O)[C@H]3O)[C@H](O)[C@H]2O)cc1` showed a Ki in experiment [2] of 110 nM.
With `CC(=O)OC[C@H]1O[C@@H](O[C@H]2[C@H](OC(C)=O)[C@@H](OC(C)=O)[C@H](NC(=S)NCc3ccc(S(N)(=O)=O)cc3)O[C@@H]2COC(C)=O)[C@H](OC(C)=O)[C@@H](OC(C)=O)[C@H]1OC(C)=O`, the inhibition constant (Ki) in experiment [1] was determined as 7.3 nM.

For the origin of these results see ChEMBL document CHEMBL1955849, “Design and synthesis of thiourea compounds that inhibit transmembrane anchored carbonic anhydrases” (Bioorg Med Chem, 2012).
